This is an account of results in patent publication US8962608B2, “Cycloalkylnitrile pyrazole carboxamides as janus kinase inhibitors” (Merck Sharp & Dohme Corp., priority 2011, dated 2015).

The chains behind the UniProt entries cited, without tags or fusion partners. Residues count along the entry.
UniProt P23458, 875-1153: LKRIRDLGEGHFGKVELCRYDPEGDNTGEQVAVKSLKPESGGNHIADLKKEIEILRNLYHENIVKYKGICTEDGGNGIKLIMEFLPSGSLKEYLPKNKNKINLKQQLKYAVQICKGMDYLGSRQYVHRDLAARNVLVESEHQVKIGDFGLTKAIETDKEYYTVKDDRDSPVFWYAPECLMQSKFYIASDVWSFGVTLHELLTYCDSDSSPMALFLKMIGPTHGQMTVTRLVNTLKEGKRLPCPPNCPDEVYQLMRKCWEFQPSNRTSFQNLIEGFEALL

By IC50 is commonly meant the concentration that inhibits the measured activity by half.
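Also: biochemical assay with HTRF read-out.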

In this assay the target is JAK1 (recombinant purified GST-tagged catalytic domain) (Homo sapiens (Human), UniProt P23458). Nature of the assay: biochemical.
As for `CN(C)[C@@H]1CC[C@H](n2cc(C(N)=O)c(Nc3ccc(C(F)(F)F)nc3)n2)[C@@H](C#N)C1` (single isomer, unassigned) [Example 28-25, 1-[(1S,2S,4R or 1R,2R,4S)-2-cyano-4-(dimethylamino)cyclohexyl]-3-{[6-(trifluoromethyl)pyridin-3-yl]amino}-1H-pyrazole-4-carboxamide], the 50% inhibitory concentration (IC50) came to 8 nM.

As to `CC1(CN[C@H]2CC[C@H](n3cc(C(N)=O)c(Nc4ccc(C(F)(F)F)cc4)n3)[C@@H](C#N)C2)COC1` (single isomer, unassigned) [Example 28-26, 1-[(1S,2S,4S or 1R,2R,4R)-2-cyano-4-{[(3-methyloxetan-3-yl)methyl]amino}cyclohexyl]-3-{[4-(trifluoromethyl)phenyl]amino}-1H-pyrazole-4-carboxamide], the IC50 was found to be 0.4 nM.

In the case of `CN(C)[C@H]1CC[C@@H](n2cc(C(N)=O)c(Nc3ccc(C(F)(F)F)nc3)n2)[C@H](C#N)C1` (single isomer, unassigned) [Example 28-27, 1-[(1R,2R,4S or 1S,2S,4R)-2-cyano-4-(dimethylamino)cyclohexyl]-3-{[6-(trifluoromethyl)pyridin-3-yl]amino}-1H-pyrazole-4-carboxamide], the IC50 amounted to 50 nM.

As to `N#C[C@H]1C[C@@H](N2CCC2)CC[C@@H]1n1cc(C(N)=O)c(Nc2ccc(Cl)c(F)c2)n1` (single isomer, unassigned) [Example 28-36, 1-[(1S,2S,4S or 1R,2R,4R)-4-azetidin-1-yl-2-cyanocyclohexyl]-3-[(4-chloro-3-fluorophenyl)amino]-1H-pyrazole-4-carboxamide], the IC50 came to 2 nM.

Consider `N#C[C@H]1C[C@H](N2CCC2)CC[C@@H]1n1cc(C(N)=O)c(Nc2ccc(Cl)c(F)c2)n1` (single isomer, unassigned) [Example 28-37, 1-[(1S,2S,4R or 1R,2R,4S)-4-azetidin-1-yl-2-cyanocyclohexyl]-3-[(4-chloro-3-fluorophenyl)amino]-1H-pyrazole-4-carboxamide], for which the half-inhibitory concentration (IC50) was 2 nM.

In the case of `CN[C@@H]1CC[C@H](n2cc(C(N)=O)c(Nc3ccc(Cl)c(F)c3)n2)[C@@H](C#N)C1` (single isomer, unassigned) [Example 28-39, 3-[(4-chloro-3-fluorophenyl)amino]-1-[(1S,2S,4R or 1R,2R,4S)-2-cyano-4-(methylamino)cyclohexyl]-1H-pyrazole-4-carboxamide], the IC50 is 2 nM.

On to `CN[C@H]1CC[C@H](n2cc(C(N)=O)c(Nc3ccc(Cl)c(F)c3)n2)[C@@H](C#N)C1` (single isomer, unassigned) [Example 28-43, 3-[(4-chloro-3-fluorophenyl)amino]-1-[(1S,2S,4S or 1R,2R,4R)-2-cyano-4-(methylamino)cyclohexyl]-1H-pyrazole-4-carboxamide], for which the 50% inhibitory concentration (IC50) is 2 nM.

With `CC1(C)CN([C@@H]2CC[C@H](n3cc(C(N)=O)c(Nc4ccc([C@H](O)C(F)(F)F)cc4)n3)[C@@H](C#N)C2)C1` (single isomer, unassigned) [Example 28-44, 1-[(1S,2S,4R or 1R,2R,4S)-2-cyano-4-(3,3-dimethylazetidin-1-yl)cyclohexyl]-3-({4-[(1S or 1R)-2,2,2-trifluoro-1-hydroxyethyl]phenyl}amino)-1H-pyrazole-4-carboxamide], the concentration for half-maximal inhibition (IC50) was found to be 0.06 nM.

In the case of `N#C[C@H]1C[C@@H](N2CCC2)CC[C@@H]1n1cc(C(N)=O)c(Nc2ccc([C@H](O)C(F)(F)F)cc2)n1` (single isomer, unassigned) [Example 28-47, 1-[(1S,2S,4S or 1R,2R,4R)-4-azetidin-1-yl-2-cyanocyclohexyl]-3-({4-[(1S or 1R)-2,2,2-trifluoro-1-hydroxyethyl]phenyl}amino)-1H-pyrazole-4-carboxamide], the IC50 came out at 0.3 nM.

Turning to `CN(C)[C@@H]1CC[C@H](n2cc(C(N)=O)c(Nc3ccc(OC(F)(F)F)cc3)n2)[C@@H](C#N)C1` (single isomer, unassigned) [Example 28-54, 1-[(1S,2S,4R or 1R,2R,4S)-2-cyano-4-(dimethylamino)cyclohexyl]-3-{[4-(trifluoromethoxy)phenyl]amino}-1H-pyrazole-4-carboxamide], the IC50 came to 5 nM.

For the compound `CC1(C)CN([C@H]2CC[C@H](n3cc(C(N)=O)c(Nc4ccc([C@@H](O)C(F)(F)F)cc4)n3)[C@@H](C#N)C2)C1` (single isomer, unassigned) [Example 28-61, 1-[(1S,2S,4S or 1R,2R,4R)-2-cyano-4-(3,3-dimethylazetidin-1-yl)cyclohexyl]-3-({4-[(1R or 1S)-2,2,2-trifluoro-1-hydroxyethyl]phenyl}amino)-1H-pyrazole-4-carboxamide], the IC50 came out at 0.06 nM.

Consider `N#C[C@H]1C[C@H](N2CCC2)CC[C@@H]1n1cc(C(N)=O)c(Nc2ccc([C@H](O)C(F)(F)F)cc2)n1` (single isomer, unassigned) [Example 28-65, 1-[(1S,2S,4R or 1R,2R,4S)-4-azetidin-1-yl-2-cyanocyclohexyl]-3-({4-[(1S or 1R)-2,2,2-trifluoro-1-hydroxyethyl]phenyl}amino)-1H-pyrazole-4-carboxamide], for which the IC50 worked out at 0.3 nM.

Regarding `N#C[C@H]1C[C@@H](N2CCC2)CC[C@@H]1n1cc(C(N)=O)c(Nc2ccc(C=O)cc2)n1` (single isomer, unassigned) [Example 28-66, 1-[(1S,2S,4S or 1R,2R,4R)-4-azetidin-1-yl-2-cyanocyclohexyl]-3-[(4-formylphenyl)amino]-1H-pyrazole-4-carboxamide], the IC50 turned out to be 0.45 nM.

As to `CC(C)(C(=O)O)c1ccc(Nc2nn([C@H]3CCC(N4CC5(CCC5)C4)C[C@@H]3C#N)cc2C(N)=O)cc1` (single isomer, unassigned) [Example 28-75, 2-[4-({1-[(1S,2S,4R or 1R,2R,4S)-4-(2-azaspiro[3.3]hept-2-yl)-2-cyanocyclohexyl]-4-carbamoyl-1H-pyrazol-3-yl}amino)phenyl]-2-methylpropanoic acid], the half-maximal inhibitory concentration (IC50) was found to be 0.25 nM.

Regarding `CC1(C)CN([C@@H]2CC[C@H](n3cc(C(N)=O)c(Nc4ccc([C@@H](O)C(F)(F)F)cc4)n3)[C@@H](C#N)C2)C1` (single isomer, unassigned) [Example 28-81, 1-[(1S,2S,4R or 1R,2R,4S)-2-cyano-4-(3,3-dimethylazetidin-1-yl)cyclohexyl]-3-({4-[(1R or 1S)-2,2,2-trifluoro-1-hydroxyethyl]phenyl}amino)-1H-pyrazole-4-carboxamide], the concentration for half-maximal inhibition (IC50) was determined as 0.2 nM.

Regarding `N#C[C@H]1C[C@H](N2CCC2)CC[C@@H]1n1cc(C(N)=O)c(Nc2ccc([C@@H](O)C(F)(F)F)cc2)n1` (single isomer, unassigned) [Example 28-85, 1-[(1S,2S,4R or 1R,2R,4S)-4-azetidin-1-yl-2-cyanocyclohexyl]-3-({4-[(1R or 1S)-2,2,2-trifluoro-1-hydroxyethyl]phenyl}amino)-1H-pyrazole-4-carboxamide], the IC50 was 0.65 nM.

Regarding `CN(C)[C@H]1CC[C@H](n2cc(C(N)=O)c(Nc3ccc(OC(F)(F)F)cc3)n2)[C@@H](C#N)C1` (single isomer, unassigned) [Example 28-86, 1-[(1S,2S,4S or 1R,2R,4R)-2-cyano-4-(dimethylamino)cyclohexyl]-3-{[4-(trifluoromethoxy)phenyl]amino}-1H-pyrazole-4-carboxamide], the IC50 is 0.75 nM.

Consider `N#C[C@H]1C[C@@H](N2CCC2)CC[C@@H]1n1cc(C(N)=O)c(Nc2ccc([C@@H](O)C(F)(F)F)cc2)n1` (single isomer, unassigned) [Example 28-87, 1-[(1S,2S,4S or 1R,2R,4R)-4-azetidin-1-yl-2-cyanocyclohexyl]-3-({4-[(1R or 1S)-2,2,2-trifluoro-1-hydroxyethyl]phenyl}amino)-1H-pyrazole-4-carboxamide], for which the 50% inhibitory concentration (IC50) came out at 0.55 nM.

As for `CC1(C)CN([C@H]2CC[C@H](n3cc(C(N)=O)c(Nc4ccc([C@H](O)C(F)(F)F)cc4)n3)[C@@H](C#N)C2)C1` (single isomer, unassigned) [Example 28-93, 1-[(1S,2S,4S or 1R,2R,4R)-2-cyano-4-(3,3-dimethylazetidin-1-yl)cyclohexyl]-3-({4-[(1S or 1R)-2,2,2-trifluoro-1-hydroxyethyl]phenyl}amino)-1H-pyrazole-4-carboxamide], the IC50 stood at 0.06 nM.

As for `N#C[C@H]1C[C@H](NCC(F)F)CC[C@@H]1n1cc(C(N)=O)c(Nc2ccnc(F)c2)n1` (single isomer, unassigned) [Example 28-106, 1-{(1S,2S,4R or 1R,2R,4S)-2-cyano-4-[(2,2-difluoroethyl)amino]cyclohexyl}-3-[(2-fluoropyridin-4-yl)amino]-1H-pyrazole-4-carboxamide], the IC50 turned out to be 9 nM.

On to `N#C[C@H]1C[C@@H](NCC(F)(F)F)CC[C@@H]1n1cc(C(N)=O)c(Nc2ccc(S(=O)(=O)C(F)(F)F)cc2)n1` (single isomer, unassigned) [Example 28-107, 1-{(1S,2S,4S or 1R,2R,4R)-2-cyano-4-[(2,2,2-trifluoroethyl)amino]cyclohexyl}-3-({4-[(trifluoro-methyl)sulfonyl]phenyl}amino)-1H-pyrazole-4-carboxamide], for which the IC50 was determined as 2 nM.

For the compound `N#C[C@H]1C[C@@H](NCC(F)F)CC[C@@H]1n1cc(C(N)=O)c(Nc2ccnc(F)c2)n1` (single isomer, unassigned) [Example 28-115, 1-{(1S,2S,4S or 1R,2R,4R)-2-cyano-4-[(2,2-difluoroethyl)amino]cyclohexyl}-3-[(2-fluoropyridin-4-yl)amino]-1H-pyrazole-4-carboxamide], the IC50 worked out at 3 nM.

Turning to `N#C[C@H]1C[C@H](N2CC3(COC3)C2)CC[C@@H]1n1cc(C(N)=O)c(Nc2ccc(C(F)(F)F)cc2)n1` (single isomer, unassigned) [Example 28-124, 1-[(1S,2S,4R or 1R,2R,4S)-2-cyano-4-(2-oxa-6-azaspiro[3.3]hept-6-yl)cyclohexyl]-3-{[4-(trifluoromethyl)phenyl]amino}-1H-pyrazole-4-carboxamide], the IC50 worked out at 1 nM.

Turning to `CS(=O)(=O)c1ccc(Nc2nn([C@H]3CC[C@H](N4CC5(CCC5)C4)C[C@@H]3C#N)cc2C(N)=O)cc1` (single isomer, unassigned) [Example 28-130, 1-[(1S,2S,4S or 1R,2R,4R)-4-(2-azaspiro[3.3]hept-2-yl)-2-cyanocyclohexyl]-3-{[4-(methylsulfonyl)phenyl]amino}-1H-pyrazole-4-carboxamide], the IC50 turned out to be 0.25 nM.
